# Data: PubChem BioAssay AID485298 (National Center for Advancing Translational Sciences (NCATS), 2010)
# The list shows a part of the results, in another mix than the full data. Some tests of the compounds listed are not included; inactive here does not mean inactive elsewhere. Active and inactive are the calls of the source. Calls come from the whole dose curve; as a rule, active = well fitted activation curve with a large enough effect; inconclusive = small, poorly fitted or top-dose-only effect; inactive = no such curve, though single readings can be large or run the other way.
# Test: qHTS Assay for Small Molecule Inhibitors of Mitochondrial Division or Activators of Mitochondrial Fusion; note: % of control where 0% means no effect; nearly all actives have a fitted effect of over 45% in size
# Settings: S. cerevisiae fusion-defective mutant growth rescue, CellTiterGlo 48 h; at 46.1 µM (top of the series)
# Description: NIH Chemical Genomics Center [NCGC] NIH Molecular Libraries Probe Production centers Network [MLPCN] MLPCN Grant: MH081279-01 Assay Submitter (PI): Jodi M. Nunnari NCGC Assay Overview: The budding yeast S. cerevisiae is a powerful system to study mitochondrial fusion. Unlike other organisms, yeast cells without functional mitochondrial DNA (mtDNA) can be propagated and studied as long as they maintain a mitochondrial compartment and are provided with a fermentable carbon source. When mitochondrial fusion is blocked in yeast, mitochondrial tubules rapidly fragment and division continues unopposed. Under conditions where fusion is compromised in mammalian cells, nearly identical changes in mitochondrial structure have been observed. Thus, these findings indicate that steady state mitochondrial structure in cells is a characteristic and specific indicator of fusion activity. Mounting evidence has pointed to a connection between mitochondrial dynamics and apoptosis in mammalian cells. These studies indicate that in mammalian cells mitochondrial dynamics are more integrated into cellular processes than in yeast cells and have evolved not only to distribute the organelle but also to aid in the regulation of cellular homeostasis. Mitochondrial fusion proteins attenuate apoptosis by inhibiting the release of cytochrome c from mitochondria, in part by controlling cristae structures. Thus, small molecules that inhibit mitochondrial […] may promote apoptosis and potentially act as novel chemotherapeutics and stimulation of apoptosis has become an attractive target of anti-cancer therapies. To identify inhibitors of mitochondrial division, we exploit the growth phenotypes of mitochondrial fusion-defective mutants. The temperature sensitive fusion alleles, such as fzo1-1 and mgm1-5, cause mitochondrial membranes to fragment in cells under non-permissive conditions and cells lose mtDNA, and are unable to grow in the presence of non-fermentable carbon source glycerol. Inhibiting mitochondrial division rescues growth. We have developed and optimized a luminescence cell viability assay in 1536 well format for the identification of inhibitors in the yeast mitochondrial fusion-defective assay.
# The yeast glycerol stocks where kindly supplied by the laboratory of Dr. Jodi Nunnari, University of California, Davis. All yeast glycerol stock solutions were stored in single use aliquots at -80C. The CellTiterGlo luminescence reagent, containing luciferase and luciferin, were purchased from Promega, and the reagents were stored according to manufacturer's instructions. The Buffer components for the YPEG yeast growth medium were purchased from Sigma-Aldrich (St. Louis, MO). YPEG growth medium: 1% (w/v) yeast extract, 2% (w/v) Bacto-peptone, 3% Ethanol, 3% glycerol, 0.4mM Tryptophan, 0.36mM Adenine. qHTS Assay Protocol: 1.#Dispense 2.5 ul yeast growth medium per 1536 well plate. 2.#Transfer 23 nl per well of compound to plate. 3.#Dispense 2.5 ul yeast solution at appropriate seeding density per well. 4.#Incubate for 48 hours at 37C. 5.#Dispense 5 ul of CellTiterGlow solution per well. 6.#Incubate at ambient for 10 minutes. 7.#Read using bio-luminescence protocol on Viewlux.
row,SMILES,growth rescue (activation)
1,O=C(OC1CN2CCC1CC2)C(CO)(c1ccccc1)c1ccccc1 (stereo not drawn),inactive: -4.68%
2,CN(C)c1cccc(C(=O)NCC2(N(C)C)CCCCC2)c1,inactive: -2.26%
3,COc1ccc(Br)c(C(=O)NCC2(N3CCCCC3)CCCCC2)c1,inactive: -3.09%
4,COc1cc(C(=O)NCC2(N(C)C)CCCCC2)c([N+](=O)[O-])cc1OC,inactive: -11.8%
5,CN(C)C1(CNC(=O)c2ccc(Br)cc2)CCCCC1,inactive: 7.7%
6,O=C(NCC1(N2CCCCC2)CCCCC1)c1cccc(Cl)c1,inactive: -7.63%
7,COc1ccc(Cl)cc1C(=O)NCC1(N(C)C)CCCCC1,inactive: 0.457%
8,COc1cccc(C(=O)NCC2(N3CCCCC3)CCCCC2)c1,inactive: -6.43%
9,CN(C)c1ccc(C(=O)NCC2(N(C)C)CCCCC2)cc1,inactive: 3.7%
10,CN(C)C1CCCC1OC(=O)C(O)(c1ccccc1)c1ccccc1 (stereo not drawn),inactive: -1.04%
11,Cc1ccccc1C(=O)NCC1(N2CCCCC2)CCCCC1,inactive: -1.46%
12,O=C(NCC1(N2CCCCC2)CCCCC1)c1cccc(Br)c1,inactive: -4.23%
13,CCN1CCCC(OC(=O)C2(O)c3ccccc3C=Cc3ccccc32)C1 (stereo not drawn),inactive: -9.22%
14,Cc1cc(C(=O)NCC2(N3CCCCC3)CCCCC2)ccc1[N+](=O)[O-],inactive: -0.333%
15,COc1ccc(C(=O)NCC2(N(C)C)CCCCC2)cc1,inactive: 19.2%
16,O=C(NCC1(N2CCCCC2)CCCCC1)c1cc(F)c(F)cc1Cl,inactive: -5.82%
17,C=CCN1CCN(CCOC(=O)C(O)(c2ccccc2)c2ccccc2)CC1,inactive: -1.08%
18,CN1[C@@H]2CC[C@H]1CC(OC(=O)C(O)(c1ccccc1)c1ccccc1)C2 (stereo partly drawn),inactive: 1.73%
19,O=C(NCC1(N2CCCCC2)CCCCC1)c1cc([N+](=O)[O-])ccc1Cl,inactive: 1.97%
20,Cc1ccc(C(=O)NCC2(N3CCCCC3)CCCCC2)cc1,inactive: 6.81%
21,CC(C)N1C(=O)CC2(CCN(CCOC(=O)C(O)(c3ccccc3)c3ccccc3)CC2)C1=O,inactive: -6.63%
22,COc1cc(SC)ccc1C(=O)NCC1(N(C)C)CCCCC1,inactive: 2.7%
23,CCN(CC)CC(C)C(C)OC(=O)C(O)(c1ccccc1)c1ccccc1 (stereo not drawn),inactive: 2.63%
